Measurements published in publication PMC4430358 (Bioorganic & medicinal chemistry letters, 2015).

Chains of the proteins cited; added tags and fusions are not shown.
UniProt P25025, whole entry: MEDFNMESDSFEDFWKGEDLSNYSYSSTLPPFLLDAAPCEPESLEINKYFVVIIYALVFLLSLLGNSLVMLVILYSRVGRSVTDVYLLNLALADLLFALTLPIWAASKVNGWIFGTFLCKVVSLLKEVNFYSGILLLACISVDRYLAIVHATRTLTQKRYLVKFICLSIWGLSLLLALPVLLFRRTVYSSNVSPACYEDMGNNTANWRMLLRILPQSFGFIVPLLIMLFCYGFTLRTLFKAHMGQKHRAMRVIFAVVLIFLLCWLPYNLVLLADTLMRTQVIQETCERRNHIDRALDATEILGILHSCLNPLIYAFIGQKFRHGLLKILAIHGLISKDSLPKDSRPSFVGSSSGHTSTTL

Molecular target: CXCR2 (Homo sapiens, UniProt P25025)
Test: PathHunter β-arrestin assay
Type: cell-based
Conditions: read-out: CXCR2 PathHunter cell line IC50 β-arrestin; IL8 used as agonist; quadruplicate, mean ± SE

SMILES: O=C(Nc1ccc([N+](=O)[O-])cc1O)Nc1ccccc1Br [SB225002, reference compound]
- pIC50: 7.05

pIC50: −log10 of the molar value.
